Yeast mating assay B: variants of the scFv Ab-14

Data: MIT Lincoln Laboratory AlphaSeq set, Li et al. 2023, doi:10.1038/s41467-023-39022-2, as distributed in FLAb.

The target is the same throughout: PDVDLGDISGINAS, from the HR2 region of SARS-CoV-2 spike.

The variants keep the heavy chain, the linker and the frameworks of Ab-14 (scFv order VH, three GGGGS repeats, VL).
VH: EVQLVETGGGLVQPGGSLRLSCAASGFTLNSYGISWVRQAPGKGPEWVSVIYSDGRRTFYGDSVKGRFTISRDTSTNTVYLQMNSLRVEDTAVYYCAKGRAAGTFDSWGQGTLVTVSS
VL: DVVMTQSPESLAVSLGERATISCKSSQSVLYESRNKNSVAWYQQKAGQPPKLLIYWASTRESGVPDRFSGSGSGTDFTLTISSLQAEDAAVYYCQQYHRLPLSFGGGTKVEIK

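Phage display of a naive human antibody library on the peptide gave the parent. The variants were designed computationally from a first round of random CDR variants and then made and measured. Group labels follow the data file (Ctrl: baseline library sampled from a position-specific scoring matrix, with some repeated check sequences; GP: Gaussian process model; Gen: genetic algorithm; a sequence that several methods proposed may carry one label only). The assay is AlphaSeq: two haploid yeast populations carry antibody and antigen on their surface. The frequency of each diploid, read from paired DNA barcodes, reflects how well the two displayed proteins bind. The ratio of observed to expected reads was calibrated, replicate by replicate, on BCL2-family standards whose Kd was known from biolayer interferometry. Mating was done six times.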

Changes read parent residue, position, new residue, counted from the first residue of the VL shown. Affinities are written as log10 Kd with Kd in nM; a lower number is a better binder. A mean of the replicates is given; it leaves out those without a signal. "nd" marks a missing value. The strain was present, yet no cells mated with the target were sequenced in that replicate, which points to weak or no binding. As a blank, each scFv also met three strains without target: over all light chain designs, 4% of these pairings were detected, typically at 2.64 and seldom below 1.59. Also given: how often the same scFv was detected with the empty control strains, with their mean in brackets. The authors' rule: three or more of the six replicates give a measured affinity, fewer mean a poor binder. Values of this round are not directly comparable with the first-round values of the same sequences. Where one sequence has several entries in the source, the replicates are listed entry by entry, parted by semicolons.

| changes | group | replicates, log10 nM | mean, log10 nM | control signals |
|---|---|---|---|---|
| S26F/S28I/N35L | Ctrl | nd nd nd nd nd nd | nd | 0/18 |
| V29T/H98I | Ctrl | nd nd nd nd nd nd | nd | 0/18 |
| K36H/W56Q | Ctrl | 0.58 0.39 0.28 0.43 0.27 0.74 | 0.45 | 0/18 |
| S25N/L30Y/N35F | Ctrl | nd nd nd nd nd nd | nd | 3/18 (2.82) |
| S26P/S58A | Ctrl | nd 3.17 nd nd 2.07 nd | 2.62 | 1/18 (2.12) |
| S26D/A57T | Ctrl | nd 1.95 nd 2.47 nd 1.86 | 2.09 | 1/18 (2.88) |
| Y31A/Y97H | Ctrl | 2.29 nd 2.36 2.28 nd nd | 2.31 | 1/18 (2.63) |
| S25W/S26K/Y31N/V39F/W56Q | Ctrl | 0.44 0.32 0.15 0.68 0.08 0.49 | 0.36 | 1/18 (3.11) |
| W56D/R99I | Ctrl | 0.38 0.34 0.61 0.37 0.31 0.76 | 0.46 | 0/18 |
| S25L/S38P/V39I/S62L/Y97E | Ctrl | nd nd nd nd nd nd | nd | 0/18 |
| Q27A/V29F | Ctrl | 1.24 1.69 1.31 1.78 1.22 1.64 | 1.48 | 0/18 |
| S25M/W56S | Ctrl | 0.33 0.06 -0.16 -0.08 0.01 0.11 | 0.04 | 2/18 (3.85) |
| Q27E/V29M/E61V | Ctrl | 1.79 1.31 1.13 1.31 1.33 1.41 | 1.38 | 1/18 (3.17) |
| S25I/V29S/W56Q/S58V | Ctrl | 0.13 0.05 0.08 0.00 -0.03 0.36 | 0.10 | 0/18 |
| H98M | Ctrl | nd nd nd nd 3.78 nd | 3.78 | 1/18 (3.40) |
| S26E/Y31N/W56G/H98S | Ctrl | 0.36 0.56 0.50 0.20 0.52 0.20 | 0.39 | 0/18 |
| L30N/S103M | Ctrl | nd nd nd nd 1.29 nd | 1.29 | 0/18 |
| S25V/R34A/T59E/S62T/H98F | Ctrl | 0.48 0.39 0.41 0.30 0.37 0.40 | 0.39 | 0/18 |
| N35W/W56N | Ctrl | 1.06 0.81 0.61 0.59 0.68 0.95 | 0.78 | 3/18 (3.13) |
| S25V/S33G/W56N | Ctrl+GP_Gen | -0.16 -0.07 -0.20 -0.21 -0.20 -0.08; 0.12 0.13 0.64 -0.17 -0.27 0.30 | -0.01 | 0/36 |
| Y31K/W56E/T59C | Ctrl | 1.67 1.76 1.03 0.99 1.69 1.39 | 1.42 | 1/18 (3.51) |
| Y31E/E61N/R99H | Ctrl | 2.20 1.94 1.28 1.21 1.49 1.53 | 1.61 | 1/18 (2.74) |
| K24H/L30G/Y31T/W56H | Ctrl | 0.95 0.79 0.66 0.82 0.87 0.69 | 0.80 | 0/18 |
| S25I/E32N/L100K/S103M | Ctrl | nd nd nd nd nd nd | nd | 0/18 |
| S25Y/W56H/S62A/L100S | Ctrl | nd 2.74 nd nd nd nd | 2.74 | 0/18 |
| L30V/K36Y/W56P/P101S | Ctrl | nd nd nd nd nd nd | nd | 0/18 |
| S25F/S26R | Ctrl | 0.84 0.72 0.15 0.51 0.50 0.73 | 0.57 | 0/18 |
| S25M/Q27K/L30P/Y31D/W56G/E61S | Ctrl | 0.27 -0.03 -0.16 0.13 0.12 0.12 | 0.08 | 0/18 |
| K24M/L30T | Ctrl | nd nd nd nd nd nd | nd | 1/18 (2.64) |
| Q27S/Y31G/K36A | Ctrl | 1.29 2.10 1.07 1.20 1.44 1.65 | 1.46 | 0/18 |
| S25M/S26E/S33Q/R34K/K36G/W56A | Ctrl | 0.16 -0.06 -0.08 -0.18 -0.06 0.07 | -0.02 | 0/18 |
| S33E/R34W/H98W | Ctrl | 2.38 nd nd nd nd nd | 2.38 | 0/18 |
| S28P/L100D | Ctrl | nd nd nd nd nd nd | nd | 0/18 |
| S25L/R34E/E61N | Ctrl | 0.95 0.81 0.53 0.42 0.31 0.51 | 0.59 | 2/18 (2.40) |
| S25L/Q27W/L30Q/E32D/R99M/L100E/S103W | Ctrl | nd nd nd nd nd nd | nd | 0/18 |
| Q27R/Y31T/N35F/N37Y | Ctrl | nd nd nd nd nd nd | nd | 1/18 (1.83) |
| Q27N/V29D/Y31A/R34T/S38P | Ctrl | nd nd 1.08 nd nd nd | 1.08 | 0/18 |
| K24M/V29Q/N37M | Ctrl | 0.85 0.75 0.90 1.43 1.58 0.75 | 1.04 | 1/18 (3.59) |
| L30F/S103F | Ctrl | nd nd 2.00 2.47 3.35 3.11 | 2.74 | 0/18 |
| R34Q/S58H | Ctrl | nd 1.03 1.56 1.50 1.31 3.21 | 1.72 | 0/18 |

The closing 5 entries, repeated:

{"changes": "Q27R/Y31T/N35F/N37Y", "group": "Ctrl", "replicates, log10 nM": "nd nd nd nd nd nd", "mean, log10 nM": "nd", "control signals": "1/18 (1.83)"}
{"changes": "Q27N/V29D/Y31A/R34T/S38P", "group": "Ctrl", "replicates, log10 nM": "nd nd 1.08 nd nd nd", "mean, log10 nM": "1.08", "control signals": "0/18"}
{"changes": "K24M/V29Q/N37M", "group": "Ctrl", "replicates, log10 nM": "0.85 0.75 0.90 1.43 1.58 0.75", "mean, log10 nM": "1.04", "control signals": "1/18 (3.59)"}
{"changes": "L30F/S103F", "group": "Ctrl", "replicates, log10 nM": "nd nd 2.00 2.47 3.35 3.11", "mean, log10 nM": "2.74", "control signals": "0/18"}
{"changes": "R34Q/S58H", "group": "Ctrl", "replicates, log10 nM": "nd 1.03 1.56 1.50 1.31 3.21", "mean, log10 nM": "1.72", "control signals": "0/18"}